{
  "source": "patent US9878999B2",
  "about": "“Proteasome chymotrypsin-like inhibition using PI-1833 analogs” (H. Lee Moffitt Cancer Center and Research Institute, Inc., priority 2011, dated 2018)",
  "target": "CT-L activity of purified 20S proteasome (Homo sapiens, UniProt P20618+P28074)",
  "assay": "in vitro CT-L activity of purified 20S proteasome",
  "type": "biochemical",
  "settings": "read-out: IC50 (μM) Chymotrypsin-like activity; Table 4",
  "data": [
    {"smiles": "Cc1ccc(-c2noc(CN(C(=O)COc3ccc(Cl)cc3)C(C)C)n2)cc1", "values": [
      {"measurement": "IC50", "result": 1.04, "unit": "µM"}
    ]},
    {"smiles": "CC(C)N(Cc1nc(-c2ccccc2)no1)C(=O)COc1ccc(C(F)(F)F)cc1", "values": [
      {"measurement": "IC50", "result": 0.38, "unit": "µM"}
    ]}
  ]
}
